Ab-95 light chain CDR variants: yeast mating affinities

All variants were tested on one target, the spike HR2 peptide PDVDLGDISGINAS (SARS-CoV-2).

Each scFv is VH, the linker GGGGSGGGGSGGGGS, VL, as in the parent Ab-95, and differs from it in the CDRs of the light chain only.
VH: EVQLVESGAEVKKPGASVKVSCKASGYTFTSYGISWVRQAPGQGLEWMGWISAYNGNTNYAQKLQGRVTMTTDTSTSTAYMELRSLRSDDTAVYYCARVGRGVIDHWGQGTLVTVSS
VL: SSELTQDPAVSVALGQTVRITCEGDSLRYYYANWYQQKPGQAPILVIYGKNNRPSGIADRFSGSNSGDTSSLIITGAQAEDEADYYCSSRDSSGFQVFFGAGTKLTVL

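Phage display of a naive human antibody library on the peptide gave the parent. The library (AAYL52) carries one to three amino acid substitutions per variant, with no insertions or deletions. In AlphaSeq, yeast of one mating type display the scFv and yeast of the other type display the target. Mating (16 h, 30 °C) was followed by selection of diploids and sequencing of their barcodes. A regression on co-assayed BCL2-family reference pairs converts the normalised counts of each replicate to an apparent Kd. Each pool was mated in three replicate cultures.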

Each variant is given by its three light chain CDRs, as the data file delimits them; those of the parent are EGDSLRYYYAN, GKNNRPS, SSRDSSGFQVF.
Numbers give log10(Kd / nM), so 0 is 1 nM and 3 is 1 µM. Smaller is tighter.
Averages over replicates are reported, and they cover detected replicates only.
Where no diploid with the target was found in that replicate, the entry reads "ND": below detection, most likely a poor binder, though not proof of it.
Parent in this assay: reference entry 2.31, copy in this library 2.25.

CDR-L1 | CDR-L2 | CDR-L3 | replicates, log10 nM | log10 Kd (nM), mean | control signals
EGDSLRYYYAN | GKCNRPS | SCRDSSGFQVF | 3.44 ND 4.13 | 3.79 | 2 of 9 (3.42)
EGDSNRYYSAN | GKNNRPS | SSRDISGFQVF | 2.94 3.25 2.63 | 2.94 | 1 of 9 (3.46)
EGDSLRYYYAV | GKNTRPS | SSRDSSGFQQF | 3.93 5.73 2.90 | 4.19 | 4 of 9 (3.87)
QHDSLRYYYAN | GKNNRPS | SSRDSSGFQVA | 2.74 2.41 2.41 | 2.52 | 2 of 9 (3.99)
EGDSLRYRYAD | GKNNVPS | SSRDSSGFQVF | 1.78 2.20 1.67 | 1.89 | 4 of 9 (3.56)
EGQSLRYQYAN | GKNNRPS | SSRDSSGFQPF | 1.56 1.09 1.06 | 1.24 | 0 of 9
EGDSLRYYQAN | GKNNPPS | SSRDSSGTQVF | 2.95 3.06 2.60 | 2.87 | 4 of 9 (4.06)
ERDSLRYYYAW | GKNNRPS | SSRDSSKFQVF | ND 3.29 ND | 3.29 | 1 of 9 (3.41)
EGDSLRYYYAS | GKNNYPS | SNRDSSGFQVF | ND ND ND | ND | 0 of 9
EGDSLRYYYAN | HKNNRPS | SSRDSSGFQYF | ND 3.86 ND | 3.86 | 2 of 9 (3.47)
EGDWLRYYYAN | GKNNRPS | SSRDSVEFQVF | ND ND ND | ND | 2 of 9 (4.18)
SGDSLRYYYAS | GKNNRPS | SFRDSSGFQVF | ND ND 4.30 | 4.30 | 2 of 9 (4.26)
TGDSLRYYYAN | GKNNRPI | SSRDSWGFQVF | 2.69 2.00 2.45 | 2.38 | 3 of 9 (3.60)
EGDSCRYYYAN | GKNNRPS | FFRDSSGFQVF | 3.40 5.68 ND | 4.54 | 6 of 9 (4.32)
EGDSLRYAYAN | GKNNRPS | SSRDSSRFQSF | 1.52 1.45 1.15 | 1.37 | 5 of 9 (4.04)
EYDSLRYVYAN | GKNNRPS | SSRASSGFQVF | 3.92 2.64 3.11 | 3.23 | 2 of 9 (3.54)
IGDSPRYYYAN | GKNNLPS | SSRDSSGFQVF | 3.13 ND 3.44 | 3.28 | 1 of 9 (3.43)
EGDELRYYYAY | GKNNRPS | SARDSSGFQVF | 3.76 ND ND | 3.76 | 5 of 9 (3.54)
EDDSLRYYEAN | GKNNRPS | SSRDSTGFQVF | 1.64 1.82 1.37 | 1.61 | 2 of 9 (4.33)
EGDSLRYYYCN | GKNNRGS | SSCDSSGFQVF | ND 3.45 4.06 | 3.76 | 1 of 9 (3.38)
EQDSLCYYYAN | GKNNRPS | SSRDSSGTQVF | 3.96 3.14 ND | 3.55 | 3 of 9 (3.24)
EDKSLRYYYAN | GKNNRPS | SSRDSSGFQVI | ND ND 4.22 | 4.22 | 3 of 9 (4.13)
EWDSLRYYYAN | GKNNQPS | SSRDFSGFQVF | 5.00 4.49 ND | 4.75 | 6 of 9 (3.68)
EGDSLRYYYAN | GKNNRNS | PSRDSSGFQVY | ND ND ND | ND | 0 of 9
VGDNLRYYYAN | GKNNRPS | SSRDSSGFKVF | 3.42 ND ND | 3.42 | 2 of 9 (4.00)
EGDSLRYYYAN | GKNNRPS | KSRYSRGFQVF | 4.25 ND ND | 4.25 | 2 of 9 (4.11)
EGDSLRYYYAN | GKENRPS | SSRDSHQFQVF | 3.86 3.57 3.23 | 3.55 | 2 of 9 (4.52)
EGDILRYYYAN | GKNNRPS | SCRDSSGFQYF | 4.22 4.34 4.40 | 4.32 | 5 of 9 (4.14)
EGDSLLYYYAN | GKNNRPS | SSRDSSGFQVF | 2.61 2.48 1.70 | 2.26 | 2 of 9 (4.29)
ERDSDRYYYAN | GKPNRPS | SSRDSSGFQVF | 3.62 ND 4.44 | 4.03 | 3 of 9 (4.08)
EGDSFRYYYAN | GKNNRPS | SSRDSRGFQVF | 3.98 3.04 3.40 | 3.47 | 4 of 9 (4.21)
EGDCLRYYYAA | GKNNRPS | SSRDESGFQVF | 3.04 ND ND | 3.04 | 4 of 9 (2.81)
EGDSLRYRRAN | GKNNRPS | SSRDSSGFQVF | 3.40 2.29 3.44 | 3.04 | 2 of 9 (3.41)
EGDSLRYYYAN | GKNNRPS | SDRDASGFQKF | ND 3.26 ND | 3.26 | 2 of 9 (3.90)
EGDSLRYYYKN | GKNGRSS | SSRDSSGFQVF | 2.74 2.35 2.71 | 2.60 | 5 of 9 (3.72)
EGDGLRYYYPN | GKNNRPS | SSRDSSGFQCF | 3.31 2.61 1.93 | 2.62 | 5 of 9 (3.72)
EGDSYRYYYAW | GKNNRPS | SSRDSSGFQDF | ND 3.92 ND | 3.92 | 3 of 9 (4.22)
ESDSLRYYYAN | GKNNRPS | CSRDSSGFQVM | 3.92 3.04 4.48 | 3.81 | 2 of 9 (4.32)
EGDCRRYYYAN | GKNNRPS | SDRDSSGFQVF | ND 5.49 ND | 5.49 | 3 of 9 (3.93)

Excerpt, the final 6 entries:

{"CDR-L1": "EGDSLRYYYAN", "CDR-L2": "GKNNRPS", "CDR-L3": "SDRDASGFQKF", "replicates, log10 nM": "ND 3.26 ND", "log10 Kd (nM), mean": "3.26", "control signals": "2 of 9 (3.90)"}
{"CDR-L1": "EGDSLRYYYKN", "CDR-L2": "GKNGRSS", "CDR-L3": "SSRDSSGFQVF", "replicates, log10 nM": "2.74 2.35 2.71", "log10 Kd (nM), mean": "2.60", "control signals": "5 of 9 (3.72)"}
{"CDR-L1": "EGDGLRYYYPN", "CDR-L2": "GKNNRPS", "CDR-L3": "SSRDSSGFQCF", "replicates, log10 nM": "3.31 2.61 1.93", "log10 Kd (nM), mean": "2.62", "control signals": "5 of 9 (3.72)"}
{"CDR-L1": "EGDSYRYYYAW", "CDR-L2": "GKNNRPS", "CDR-L3": "SSRDSSGFQDF", "replicates, log10 nM": "ND 3.92 ND", "log10 Kd (nM), mean": "3.92", "control signals": "3 of 9 (4.22)"}
{"CDR-L1": "ESDSLRYYYAN", "CDR-L2": "GKNNRPS", "CDR-L3": "CSRDSSGFQVM", "replicates, log10 nM": "3.92 3.04 4.48", "log10 Kd (nM), mean": "3.81", "control signals": "2 of 9 (4.32)"}
{"CDR-L1": "EGDCRRYYYAN", "CDR-L2": "GKNNRPS", "CDR-L3": "SDRDSSGFQVF", "replicates, log10 nM": "ND 5.49 ND", "log10 Kd (nM), mean": "5.49", "control signals": "3 of 9 (3.93)"}

Background: pairings of library AAYL52 with three empty control strains gave a value in 28% of cases (median 3.91, 5th percentile 2.90). Values in that range, when seen in few replicates, are hard to tell from nonspecific mating. The control count says in how many pairings with the empty strains this scFv gave a signal, with their mean in brackets.

Data: MIT Lincoln Laboratory AlphaSeq set, Engelhart et al. 2022, doi:10.1038/s41597-022-01779-4, as distributed in FLAb.